System: L6
Assay: Cytotoxicity against rat L6 cells assessed as decrease in cell viability after 72 hrs by resazurin dye based fluorescence analysis
Conditions: l6, 72 h

## C[C@]12C[C@](C)(OO1)OO2
  Activity: Non-toxic

Source: ChEMBL document CHEMBL3596151, “Elucidation of the in vitro and in vivo activities of bridged 1,2,4-trioxolanes, bridged 1,2,4,5-tetraoxanes, tricyclic monoperoxides, silyl peroxides, and hydroxylamine derivatives against Schistosoma mansoni” (Bioorg Med Chem, 2015)
